# Assay: Ex vivo radioactivity in tissues and organs after PET imaging of normal mice (Table 1)
# Text: After PET imaging, the animals were sacrificed and major tissues and organs were collected. With both ^18F-AlF-NEB and ^18F-FB-MSA, the blood had the highest counts.
substance,measurement,value
^18F-FB-MSA: mouse serum albumin (MSA) labeled in vitro with N-succinimidyl 4-^18F-fluorobenzoate,"radioactivity, Blood",34.71 ± 3.29
same,"radioactivity, Intestine",3.10 ± 0.28
same,"radioactivity, Kidney",12.01 ± 05.59
same,"radioactivity, Liver",7.42 ± 053
same,"radioactivity, Muscle",0.80 ± 0.09
same,"radioactivity, Pancreas",2.09 ± 0.15
same,"radioactivity, Spleen",8.52 ± 1.71

# — patent publication US10258701B2, “Labeled evans blue dye derivative for in vivo serum albumin labeling” (The United States of America, as represented by the …, priority 2015, dated 2019)
